One test has as its system A. maculatum ticks. Briefly: Efficacy against ticks in dogs. The following applies: same groups.
The test system of test [1] is D. immitis (L3 inoculation, adult worm recovery). Nature of the test: Prevention of heartworm disease in dogs. Conditions: in vivo.
For a further test, the system named is C. felis fleas. Nature of the test: Efficacy against fleas in dogs. The following applies: same groups.

The structures appear in SMILES notation.

On to `CS(=O)(=O)CC(=O)N1CC2(C1)OCc1cc(C3=NO[C@@](c4cc(Cl)c(F)c(Cl)c4)(C(F)(F)F)C3)ccc12` [Compound A, (S)-1-(5′-(5-(3,5-dichloro-4-fluorophenyl)-5-(trifluoromethyl)-4,5-dihydroisoxazol-3-yl)-3′H-spiro[azetidine-3,1′-isobenzofuran]-1-yl)-2-(methylsulfonyl)ethanone], for which the “% Efficacy (reduction in geometric mean live ticks versus placebo)” value with A. maculatum ticks (Day 7) came to 100%; with A. maculatum ticks (Day 14) it was 99.1%; with A. maculatum ticks (Day 21) it was 98.7%; with A. maculatum ticks (Day 28), 100%; with A. maculatum ticks (Day 35), 100%. The “efficacy in prevention of heartworm disease (reduction in adult D. immitis worm counts relative to placebo)” value in test [1] is given as “virtually no reduction”. For the same compound, the “% Efficacy (reduction in geometric mean live flea counts versus placebo)” value in the test on C. felis fleas (Day 7), in the test on C. felis fleas (Day 14), in the test on C. felis fleas (Day 21), in the test on C. felis fleas (Day 28) and in the test with C. felis fleas (Day 35) was 100% each time.
For the compound `CO/N=C1\C[C@]2(C[C@@H]3C[C@@H](C/C=C(\C)C[C@@H](C)/C=C/C=C4\CO[C@@H]5[C@H](O)C(C)=C[C@@H](C(=O)O3)[C@]45O)O2)O[C@H](/C(C)=C/C(C)C)[C@H]1C` [Moxidectin, moxidectin], the “% Efficacy (reduction in geometric mean live ticks versus placebo)” value with A. maculatum ticks (Day 7), with A. maculatum ticks (Day 14), with A. maculatum ticks (Day 21), in the test with A. maculatum ticks (Day 28) and with A. maculatum ticks (Day 35) was 0% each time. Also, the “% Efficacy (reduction in geometric mean live flea counts versus placebo)” value in the test on C. felis fleas (Day 7) turned out to be 8.7%; with C. felis fleas (Day 14), 12.0%; in the test on C. felis fleas (Day 21), 2.8%; with C. felis fleas (Day 28) it was 16.1%; in the test with C. felis fleas (Day 35), 11.3%.

The values above are taken from patent US9226928B2, “Spirocyclic isoxazoline parasiticidal combinations” (Zoetis Services LLC, priority 2012, dated 2016).
